Measured values as given in published antibiotic growth screens (doi:10.1038/s41589-023-01349-8).
The other results are listed elsewhere or left out.

What follows are compounds tested on A. baumannii ATCC 17978 (assay: relative growth (fraction of control); higher = less inhibition). Conditions: 50 µM.

Row | SMILES | relative growth
1 | CN1CCC[C@H]1c1cccnc1.O=C(O)C(O)C(O)C(=O)O.O=C(O)C(O)C(O)C(=O)O | 1.05
2 | C=CCn1c(=O)n([C@H]2O[C@@H](CO)[C@@H](O)[C@@H]2O)c2[nH]c(N)nc(=O)c21 | 1.03
3 | O=C(C[C@H]1CC[C@@H]2[C@H](COC[C@@H](O)CN2C(=O)c2ccncc2)O1)NC1CCC1 | 1.09
4 | Cn1cnc(S(=O)(=O)N2C[C@H](O)COC[C@@H]3O[C@H](CC(=O)NCc4cc(F)cc(F)c4)CC[C@H]32)c1 | 1.02
5 | CC(C)NCC(O)c1ccc2ccccc2c1.Cl (centres undefined) | 1
6 | O=C(CN1CCOCC1)NCC[C@@H]1CC[C@H](NC(=O)Cc2ccccn2)[C@@H](CO)O1 | 1.01
7 | O=C(O)CSCC(=O)NC1CCSC1=O (centres undefined) | 0.981
8 | CC(C)=CCOc1cc2oc(=O)ccc2cc1O | 0.955
9 | COCC(=O)Nc1ccc2c(c1)OC[C@@H](C)N(C(=O)Cc1ccccn1)C[C@@H](C)[C@@H](OC)CN(C)C2=O | 0.952
10 | CC(C)NC(=O)N[C@@H]1C=C[C@H](CC(=O)NCCN2CCCC2)O[C@@H]1CO | 0.968
11 | O=C(Cc1ccncc1)NCC[C@H]1CC[C@@H](NC(=O)C2CCOCC2)[C@H](CO)O1 | 1.05
12 | COc1cccc(S(=O)(=O)N2C[C@H](O)COC[C@H]3O[C@@H](CC(=O)N4CCOCC4)CC[C@@H]32)c1 | 0.865
13 | CC(C)(C)OC(=O)C[C@@H]1CC=CC[C@@H](CC(=O)NCCO)C(=O)N[C@@H](Cc2ccccc2)COC1=O | 1.02
14 | CCC(C)C1NC(=O)C(CCNCS(=O)(=O)[O-])NC(=O)C(NC(=O)C(CCNCS(=O)(=O)[O-])NC(=O)C(NC(=O)C(CCNCS(=O)(=O)[O-])NC(=O)CCCCC(C)C)C(C)O)CCNC(=O)C(C(C)O)NC(=O)C(CCNCS(=O)(=O)[O-])NC(=O)C(CCNCS(=O)(=O)[O-])NC(=O)C(C(C)CC)NC1=O.[Na+].[Na+].[Na+].[Na+].[Na+] (centres undefined) | 0.158
15 | C[C@H](CO)N1C[C@H](C)[C@H](CN(C)C(=O)c2cccnc2)Oc2ncc(-c3ccc(C(=O)N(C)C)cc3)cc2C1=O | 1.08
16 | COc1cccc(S(=O)(=O)N[C@@H]2CC[C@H](CC(=O)NC3CCC3)O[C@H]2CO)c1 | 0.987
17 | CC(=O)Oc1ccc(O)cc1 | 0.919
18 | Cc1cc2c(cc1C)N=C(C(F)(F)F)CC(c1cccs1)=N2 | 0.922
19 | O=S(=O)(NCC[C@@H]1CC[C@@H](NS(=O)(=O)c2cccc(Cl)c2)[C@H](CO)O1)c1cccc(F)c1 | 0.987
20 | CC1(C)CCC2=C(O1)c1ccccc1C(=O)C2=O [beta-LAPACHONE] | 1.47
21 | Cn1c(=O)c(C(=O)NCCO)c(O)c2ccccc21 | 1.02
22 | COc1ccccc1S(=O)(=O)N[C@@H]1CC[C@H](CCNC(=O)C2CC2)O[C@@H]1CO | 0.954
23 | Cn1c(=O)[nH]c(=O)c2c(=O)cc[nH]c21 | 1.14
24 | O=C(C[C@H]1C=C[C@H](NC(=O)Cc2ccccn2)[C@H](CO)O1)NCCc1ccncc1 | 0.994
25 | COc1ccc(C(=O)Nc2cccc(CN3C(=O)[C@@]4(O[C@@H](CC(=O)N(CCO)Cc5ccccc5)[C@H]([Si](C)(C)c5ccc(OC)cc5)[C@H]4C)c4ccccc43)c2)cc1 | 1.08

Row | SMILES | relative growth
26 | NCC[C@@H]1CC[C@@H](NC(=O)C2CCCCC2)[C@H](CO)O1 | 0.988
27 | CC(=O)O[C@H]1C[C@@H](OC(C)=O)C(C)(C)C2CC(=O)[C@]3(C)C(CC[C@@]4(C)[C@H](c5ccoc5)OC(=O)[C@H]5O[C@]543)[C@]21C (some centres undefined) | 1.03
28 | COc1ccc([N+](=O)[O-])cc1CNCCO | 1
29 | CC(=O)NCCCC[C@@H]1NC(=O)[C@@H]2C[C@H](C(=O)NCCCCCCNC(=O)CS)[C@H](c3ccc(O)cc3)N2C1=O | 0.899
30 | O=C(CS)NCCCCCCNC(=O)[C@H]1C[C@H]2C(=O)NCC(=O)N2[C@H]1c1ccc(O)cc1 | 0.898
31 | Cc1noc(C)c1S(=O)(=O)/N=C/N(C)C | 1.14
32 | O=C(C[C@H]1C=C[C@@H](NC(=O)c2ccc(F)cc2)[C@@H](CO)O1)NCc1ccncn1 | 0.999
33 | CC(C)C(=O)Nc1ccc([N+](=O)[O-])c(C(F)(F)F)c1 | 0.943
34 | CO[C@@H]1[C@@H](OC(N)=O)[C@@H](O)[C@H](Oc2ccc3c([O-])c(NC(=O)c4ccc(O)c(CC=C(C)C)c4)c(=O)oc3c2C)OC1(C)C.[Na+] | 0.143
35 | O=C(Nc1ccc(Cl)cc1)c1sc2ccccc2c1Cl | 1.21
36 | Cc1ccc2oc(=O)cc(Cl)c2c1 | 1.1
37 | COc1ccc(COC[C@]23N=C4SCc5ccccc5C(=O)N4[C@H](c4ccccc4O2)[C@H]3COC(=O)c2ccccc2)cc1 | 1.09
38 | O=C1O[C@@H](c2ccccc2)[C@@H](c2ccccc2)N2[C@@H](c3ccc(O)cc3)[C@]3(C(=O)Nc4ccc(C#CC5(O)CCCCCC5)cc43)[C@@H](C(=O)NC[C@H](O)c3ccccc3)[C@H]12 | 1.02
39 | C=CC(=O)N1C[C@H]2CC[C@H](O)[C@H]2C1 | 1.01
40 | COCCNC(=O)C[C@@H]1CC[C@@H]2[C@H](COC[C@@H](O)CN2S(=O)(=O)c2ccccc2C)O1 | 0.973
41 | CC(=O)NCCCC[C@@H]1NC(=O)[C@@H]2C[C@H](C(=O)NCCCCN(C)C)[C@H](c3cccc(OCCO)c3)N2C1=O | 1.08
42 | NC(=O)c1ccc[n+](CC(=O)N2CCCCC2)c1 | 1
43 | COC(=O)C[C@H]1CC[C@H]2[C@@H](COC[C@@H](O)CN2S(=O)(=O)c2ccc(F)cc2)O1 | 0.848
44 | C=CC[C@H](CC(=O)NCCO)C(=O)N[C@H](COC(=O)[C@H](CC=C)CC(=O)OC(C)(C)C)Cc1ccccc1 | 0.865
45 | CC(=O)OC1CCC2(C)C3CC(=O)C4(C)C(CC5OC6(CCC(C)CO6)[C@@H](C)C54)C3CC[C@H]2C1 (some centres undefined) | 0.98
46 | C[C@@H]1CN([C@H](C)CO)S(=O)(=O)c2ccc(-c3cncnc3)cc2O[C@@H]1CN(C)C(=O)c1ccc2c(c1)OCO2 | 1.1
47 | CC(C)CC#Cc1ccc2c(c1)O[C@H](CN(C)S(=O)(=O)c1cccc(F)c1)[C@@H](C)CN([C@H](C)CO)S2(=O)=O | 1.17
48 | CCC[C@@H](N[C@H]1CCS(=O)(=O)C1)C(=O)O | 1.15
49 | C[C@]12C[C@@H](O)[C@@H]3C[C@@]1(O[C@@H]1O[C@H](CO)[C@@H](O)[C@H](O)[C@H]1O)[C@@]3(COC(=O)c1ccccc1)C(=O)O2 | 1.03
